Values joined by “and” are separate entries in the source; they are usually repeats but may differ in a detail not shown here. Equal entries are not always repeated.
Columns and labels:
NOPr [1] = target: T1, NOPr (Homo sapiens, UniProt P41146); assay: BRET G-protein activation (GPA) assay, Gαi2, agonist and antagonist mode, Flp-In-NOPr-CHO cells; assay type: cell-based
Protocol: The functional activity of congeners 11a-h was assessed in a bioluminescence resonance energy transfer (BRET) assay measuring NOPr activation of the Gαi2 G protein through release of Gβγ subunits in Flp-In-NOPr-Chinese hamster ovary (CHO) cells, as summarized in Figure a. The purpose of this assay was to determine whether the affinity and antagonist profile were retained after chemical modification of C24. To confirm an antagonist profile, we measured the ability of increasing concentrations of 11a-h (1 pM to 10 μM), 13g-h, and 14h (1 pM to 1 mM) to either stimulate Gai2 activation or to inhibit the action of an EC80 concentration of N/OFQ. Inhibition data were used to derive inhibitory potency (pIC50) values (Table ), which are indicative of the relative affinities of the various congeners.
2 G-protein activation (GPA) assay and corresponding NOPr ligand concentration–response curves for N-Boc-C24-congener (11a-h) and fluorescent-ligands (13g-h and 14h). Data represent the mean ± SEM of n = 4 experiments performed in duplicate. (a) Illustrative representation of the GPA assay–ligand-induced receptor activation causes G protein dissociation, releasing a Venus-tagged Gβγ (acceptor) to interact with a membrane-localized c-terminus of G protein-coupled receptor kinase 3 (masGRK3ct) fused to a renilla luciferase enzyme (RLuc8) (donor). In this assay, 11a-h (10 μM to 1 pM), 13g-h, and 14h (1 μM to 1 pM) were assessed in agonist mode; NOPr ligands in the absence of the competing agonist N/OFQ and, antagonist mode; NOPr ligands in the presence of a EC80 concentration of N/OFQ. After a 10 min incubation with the R-Luc substrate coelenterazine and NOPr ligands, luminescence was measured to quantify GPA as a BRET ratio between acceptor λem 535 nm/donor λem 475 nm. Concentration–response curves (b–e) showing GPA by NOPr ligands as a percentage of the maximal response to the endogenous agonist are shown for 11a-h in (b) agonist mode and (c) antagonist mode, and 13g-h and 14h in (d) agonist mode and (e) antagonist mode.
Flp-In CHO cells stably expressing SNAP-NOPr were transiently transfected with Gαi2 (2 μg), Gβ1-Venus (156–259)(1 μg), Gγ2-Venus(1–155)(1 μg), and masGRK3ct-RLuc8 (1 μg) using polyethylenimine (PEI) in a 1:6 DNA/PEI ratio. […]
Cells were then incubated with coelenterazine H (NanoLight Technology) (10 μL/well, 50 μM, 5 min, RT) before ligands were added to the 96-well plate with final ligand concentrations ranging from (10 μM-0.01 nM). […] Cells were incubated in the plate reader, and luminescence was read using dual emission detection at 475 nm (Rluc8 Donor) and 535 nm emission (BRET signal) at 10 and 30 min. Plates were read on a PHERAstar (BMG Lab Tech), and data were exported through MARS and analyzed using Prism (GraphPad, Version 10). […]

Sequences of proteins named here, by UniProt entry; tags and fusion partners are left off. A change or cut given only in a name is not applied to a line headed by its entry.
UniProt P41146: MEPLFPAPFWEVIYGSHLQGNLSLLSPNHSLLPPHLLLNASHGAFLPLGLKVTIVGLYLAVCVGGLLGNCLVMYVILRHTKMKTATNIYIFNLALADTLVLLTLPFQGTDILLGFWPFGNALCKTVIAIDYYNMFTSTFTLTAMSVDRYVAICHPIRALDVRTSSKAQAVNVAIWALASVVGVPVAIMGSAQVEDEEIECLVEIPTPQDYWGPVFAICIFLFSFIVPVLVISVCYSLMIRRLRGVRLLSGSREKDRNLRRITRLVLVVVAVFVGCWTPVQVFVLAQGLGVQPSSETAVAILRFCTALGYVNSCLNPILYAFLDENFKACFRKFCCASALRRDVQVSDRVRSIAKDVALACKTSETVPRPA

NOPr [2] = target: T1, NOPr; assay: TR-FRET equilibrium saturation binding, Lumi4Tb-SNAP-NOPr CHO membranes
Protocol: The levels of specific binding (total – nonspecific) were calculated and used to determine the dissociation constant (K D) as a measure of affinity. Specific binding curves are shown in Supporting Figure S2. […] Nonetheless, both ligand high affinity and low background signal are promising properties for fluorescence-based studies at the NOPr, enabling low concentrations to be used and improving signal-to-noise ratio. To further investigate the binding characteristics 13g-h, kinetic studies were carried out.
(§1) For 13g-h, the homogeneous TR-FRET (HTRF) ratio [(acceptor λem (665 nM)/donor λem (620 nM) × 10000)] is plotted against ligand concentration (nM) for the total binding (solid circle) and nonspecific binding (NSB) (hollow circle). Kinetic binding of (c) 13g and (d) 13h to Lumi4-Tb SNAP-NOPr-CHO membranes was measured over 15 min to determine the NOPr Ligand kinetic parameters in Table . For each concentration applied (0–50 nM), the specific labeling (total-NSB) HTRF ratio × 10,000 is plotted against time (minutes). For end point saturation binding assays, data represent the mean ± SEM of n = 3 experiments performed in duplicate, and for kinetic binding studies, all data represent the mean of n = 3 experiments.
All ligands were prepared in TR-FRET buffer, consisting of Hanks’ Balanced Salt Solution (Sigma-Aldrich H6648) (KCl 5 mM, KH2PO4 0.4 mM, NaHCO3 4 mM, NaCl 137 mM, Na2HPO4 0.3 mM), Pluronic-F127 (0.02% w/v), DMSO (1% v/v), and glucose (1 mg.mL^–1), adjusted to pH 7.4. Membrane aliquots were thawed on ice prior to use, and membrane suspensions [membrane (0.05 μg.μL^–1), Gpp(NH)p (100 μM), and saponin (50 μg.mL^–1)] were prepared in TR-FRET buffer. To ensure homogeneity, the membrane suspension was passed through a 27-gauge needle before use. Measurements were made in low-binding 384-well optiplates (PerkinElmer) on a PHERAstar (BMG Labtech) plate reader using the HTRF module [337 nm excitation with dual emission detection at 620 nm (terbium cryptate donor) and 665 nm emission (fluorescent ligand acceptor)] at a focal height of 11.4 mm. Integration was started 60 μs post irradiation (4 flashes/well) for 400 μs, all saturation and competition binding experiments were carried out in duplicate wells, and data were reported as the mean HTRF ratio ((acceptoremission/donoremission)×10,000) from 3 repeat measurements ±SEM. Kinetic binding experiments were performed in singlet wells, and the data represent the mean of n = 3 experiments ±SEM.
Membrane solution (20 μL) was added, and the measurement was taken after a 2 h incubation at 37 °C. All data were converted to specific binding (total – nonspecific) and fitted using eq to determine K D. 2 HTRFratio×10,000=Bmax[FL]/(KD+[FL])

NOPr [3] = target: T1, NOPr; assay: TR-FRET kinetic binding, Lumi4-Tb-SNAP-NOPr-CHO membranes; conditions: kinetically derived, 15 min, n = 3
Protocol: as §1, with “experiments. […]” for “experiments.”
All ligands were prepared in TR-FRET buffer, consisting of Hanks’ Balanced Salt Solution (Sigma-Aldrich H6648) (KCl 5 mM, KH2PO4 0.4 mM, NaHCO3 4 mM, NaCl 137 mM, Na2HPO4 0.3 mM), Pluronic-F127 (0.02% w/v), DMSO (1% v/v), and glucose (1 mg.mL^–1), adjusted to pH 7.4. […] Measurements were made in low-binding 384-well optiplates (PerkinElmer) on a PHERAstar (BMG Labtech) plate reader using the HTRF module [337 nm excitation with dual emission detection at 620 nm (terbium cryptate donor) and 665 nm emission (fluorescent ligand acceptor)] at a focal height of 11.4 mm. […]

NOPr [4] = target: T1, NOPr; assay: TR-FRET saturation binding of 13h in Na+/Gpp(NH)p or NMDG buffer
Protocol: To investigate the effect of Na^+ and guanine nucleotides on competition binding experiments, as discussed in Section , we decided to perform competition binding experiments in the presence (Figure a) and absence (Figure b) of 100 mM Na^+ ions, which are known to be a negative allosteric modulator of many GPCRs , and a nonhydrolyzable form of guanine triphosphate, Gpp(NH)p (100 mM). To maintain an equivalent ionic strength in the Na^+ free condition, 100 mM of the organic cation N-methyl-D-glucamine (NMDG) was included in the buffer.
Saturation and competition binding experiments were performed as previously described using different buffer conditions. In the sodium and Gpp(NH)-p, free condition experiments were carried out in buffer containing (20 mM HEPES, 100 mM NMDG, 6 mM MgCl2, 1 mM EGTA, and 1 mM EDTA, pH 7.4) and in the sodium and Gpp(NH)-p containing condition buffer containing (20 mM HEPES, 100 mM NaCl, 6 mM MgCl2, 1 mM EGTA, and 1 mM EDTA, pH 7.4) with 100 μM Gpp(NH)-p. […] For saturation experiments, increasing concentrations of 13h (0–400 nM) were used.
Gpp(NH)p (100 µM) + NMDG (100 mM) […]
Figure S4. TR-FRET saturation binding experiments to characterize the afKinity of Kluorescent ligand 13h in
buffers containing a) 100 mM Na+ and 100 mM Gpp(NH)p or b) 100 mM NMDG. The binding of increasing
concentrations of 13h (0-400 nM) to Lumi4-Tb SNAP-NOPr-CHO membranes in the presence (non-speciRic)(black
circle) and absence (total-binding) (hollow circle) of SB612111 was assessed after 2 hrs at 37° C. The homogenous
TR-FRET (HTRF) ratio ((acceptor lem (665 nM) /donor lem (620 nM) ´ 10000) is plotted against ligand
concentration (nM) for each condition. SpeciRic binding curves (total - non-speciRic) (black circle) are shown for 13h
in both c) Na+ and Gpp(NH)p and d) NMDG condition. All data represent the mean ± SEM of n=3 experiments
mean ± SEM of n=3 eperiments performed in duplicate.
+ Na+ and Gpp(NH)p + NMDG

CN1/C(=C/C=C/C=C/C2=[N+](CCCCCC(=O)NCCOc3ccc(CN4CCC[C@@H]4C(=O)NCCCN4CCC5(CC4)OCc4ccccc45)cc3)c3ccc(S(=O)(=O)[O-])cc3C2(C)C)C(C)(C)c2cc(S(=O)(=O)[O-])ccc21.[K+] [13h, Potassium 1-(6-((2-(4-(((R)-2-((3-(3H-Spiro[isobenzofuran-1,4′-piperidin]-1′-yl)propyl)carbamoyl)pyrrolidin-1-yl)methyl)phenoxy)ethyl)amino)-6-oxohexyl)-3,3-dimethyl-2-((1E,3E)-5-((E)-1,3,3-trimethyl-5-sulfonatoindolin-2-ylidene)penta-1,3-dien-1-yl)-3H-indol-1-ium-5-sulfonate]
IC50 (NOPr [1]; IC50, antagonist mode, inhibition of EC80 concentration of N/OFQ, n = 4 in duplicate): 120 nM
IC50 (NOPr [1]; NOP IC50 (nM), supplementary csv, GPA assay antagonist mode): 117 nM
IC50 (NOPr [1]; NOP pIC50 ± SEM, supplementary csv, GPA assay antagonist mode): 117 nM
IC50 (NOPr [1]; pIC50 ± SEM, antagonist mode, inhibition of EC80 concentration of N/OFQ, n = 4 in duplicate): 126 nM
Kd (NOPr [2]; 2 h, 37 °C, n = 3, read-out: saturation KD (converted)): 5.6 nM
Kd (NOPr [2]; 2 h, 37 °C, n = 3, read-out: saturation pKD (converted)): 5.01 nM
Kd (NOPr [2]; Table 3, equilibrium saturation binding, read-out: KD NOPr (converted)): 5.6 nM
Kd (NOPr [2]; Table 3, equilibrium saturation binding, read-out: pKD ± SEM NOPr (converted)): 5.01 nM
Kd (NOPr [3]; read-out: kinetic KD (converted)): 6 nM
Kd (NOPr [3]; read-out: kinetic pKD (converted)): 5.75 nM
Kd (NOPr [4]; 100 mM NMDG, read-out: Saturation KD, + NMDG): 17.1 nM and 17 nM
Kd (NOPr [4]; 100 mM NMDG, read-out: Saturation pKD, + NMDG (converted)): 17 nM
Kd (NOPr [4]; 100 mM Na+, 100 μM Gpp(NH)p, read-out: Saturation KD, + Na+ and Gpp(NH)p): 8.3 nM
Kd (NOPr [4]; 100 mM Na+, 100 μM Gpp(NH)p, read-out: Saturation pKD, + Na+ and Gpp(NH)p (converted)): 8.32 nM
